Results published in ChEMBL document CHEMBL5726848, “Bruton's tyrosine kinase inhibitors” (2019).

Amino acid sequences for entries named in this document (tags omitted). A change or cut given only in a name is not applied to a line headed by its entry.
UniProt Q06187: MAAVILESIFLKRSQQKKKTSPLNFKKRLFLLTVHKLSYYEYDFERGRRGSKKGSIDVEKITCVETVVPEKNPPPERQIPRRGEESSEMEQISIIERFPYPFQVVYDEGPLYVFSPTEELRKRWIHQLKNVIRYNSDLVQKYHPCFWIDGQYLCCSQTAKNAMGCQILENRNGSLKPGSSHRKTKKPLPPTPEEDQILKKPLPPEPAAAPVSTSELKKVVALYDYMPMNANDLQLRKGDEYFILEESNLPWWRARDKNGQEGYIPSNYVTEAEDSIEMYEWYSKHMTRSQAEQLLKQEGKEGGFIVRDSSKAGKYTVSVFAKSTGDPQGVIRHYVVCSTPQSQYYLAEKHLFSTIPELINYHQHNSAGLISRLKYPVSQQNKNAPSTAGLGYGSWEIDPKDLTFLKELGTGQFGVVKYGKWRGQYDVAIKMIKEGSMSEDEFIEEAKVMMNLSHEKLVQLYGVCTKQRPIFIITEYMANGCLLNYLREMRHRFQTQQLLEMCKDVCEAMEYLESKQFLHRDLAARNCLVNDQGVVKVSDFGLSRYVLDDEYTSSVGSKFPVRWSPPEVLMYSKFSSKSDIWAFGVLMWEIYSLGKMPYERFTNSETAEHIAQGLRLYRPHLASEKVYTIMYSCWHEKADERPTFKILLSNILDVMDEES

Molecular target: Tyrosine-protein kinase BTK (Homo sapiens, UniProt Q06187)

`N#CCN1CCC(n2nc(-c3ccc(Oc4ccccc4)cc3)c(C(N)=O)c2N)CC1` gave an IC50 of 11.7 nM.
